Data as given in article PMC11876601 (Molecular Systems Biology, 2025).

What was measured:
PDO UME053 = assay: PDO viability assay (CellTiter-Glo, 72 h); format: cell-based, human; parameters: Curve top: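 fraction of plate-wise median vehicle signal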; settings: for EC50: Homo sapiens
Method: (§1) Primary patient-derived PDAC organoid (PDO) experiments were performed in the laboratories of Prof. Maximilian Reichert (University Hospital of the TU Munich, Germany, PDO set 1: B250, B535, B678) and Prof. Jens T. Siveke (University Hospital Essen, Germany; PDO set 2: UME008, UME012, UME051, UME053, UME060, UME061). PDOs were generated from surgical resection, EUS-guided fine needle biopsy (EUS-FNB), or ascites (Appendix Table S2). Surgical specimens were first minced with a sterile scalpel and subsequently washed with Anti-Anti solution and washing medium (PDO set 1), or vice versa (PDO set 2; Appendix Table S3). Biopsy samples were directly washed with an Anti-Anti solution and washing medium. Samples were digested using 1 ml of digestion medium at 37 °C while shaking, and the enzymatic reaction was stopped by adding 15 ml of washing medium (Appendix Table S3). If samples of PDO set 1 were blood-stained, tissue pellets were first incubated with ACK lysing buffer/red blood cells lysis buffer (Thermo Fisher Scientific) for 5 min and then digested using TrypLE (Thermo Fisher Scientific). The reversed procedure was applied for blood-stained samples of PDO set 2. For PDO generation from ascites, the material was first spun down at 500 × g for 5 min. Then, washing medium was added and the suspension was centrifuged at 300 × g for 5 min. If the pellet was blood-stained, ACK lysis buffer was added and incubated at room temperature.
For viability assays in PDOs, confluent organoids were removed from medium, and Matrigel was dissolved by adding 200 μl (PDO set 1) or 2 ml (PDO set 2) of Cell Recovery Solution (Corning), and additionally 500 μl of DPBS (PDO set 1 only). Samples were transferred into a falcon and incubated on ice for 30 min, followed by centrifugation at 300 × g at 4 °C for 5 min (after adding 10 ml washing medium for PDO set 2). Subsequently, TrypLE Express Enzyme (Thermo Fisher) was added to cell pellets and incubated for 2 × 5 min at 37 °C. The enzymatic reaction was quenched by DPBS (PDO set 1) or washing medium (PDO set 2), and samples were washed by centrifugation at 300 × g at 4 °C for 5 min. Five hundred cells/well were seeded in 384-well plates (Corning) in 50 μl of PDO medium containing 10% Matrigel. To allow PDO generation, cells were incubated for 4 days at 37 °C and 5% CO2. […] After 72 h, cell viability was measured using the CellTiter-Glo Luminescent Cell Viability Assay (Promega) diluted 1:5 in the final volume of the well. After 20 min of incubation at room temperature under gentle shaking, the acquisition was performed in the microplate reader VantaSTAR (BMG Labtech) using 3000 gain for the amplification measurement of a detected signal (PDO set 1) or the Spark Multimode microplate reader (TECAN) at 800 ms integration time (PDO set 2).

p-sites in Dan-G cells = assay: Phosphoproteomics GEM + Elimusertib vs. GEM (non-decryptM); format: cell-based, human
Method: (§2) Cell culture medium was replaced 24 h after seeding. […] For time point 0, AsPC-1 cells were treated with a vehicle and lysed immediately. The final DMSO concentration in all experiments was 0.2%.
(§3) Oxidized methionine, N-terminal acetylation, and phosphorylation (STY) were set as variable modification, and cysteine carbamidomethylation was set as fixed modification. All other search parameters were kept as default, except for protein FDR which was set to 1. […] Potential contaminants and reversed hits were removed, and only peptides with unambiguously assigned phosphorylation sites with a localization probability of > 0.75 were retained. To acquire site-level quantification values, the corrected reporter ion intensities of peptides containing the same phosphosite(s) were summed up. Median centering of corrected TMT reporter channel intensities was performed. […] Channel 11 served as a vehicle for the chemodrug treatment and was not subjected to curve fitting. Instead, row-wise normalization was performed across all four TMT-batches using the medians of channels 10 and 11. […] Phosphoproteomic experiments in six additional cell lines (not dose-resolved) were median-centered within each TMT-batch, prior to row-wise normalization across all TMT-batches using a common channel filled with AsPC-1 lysate (Appendix Table S5). […]

p-sites in Capan-1 cells = assay: as above; format: cell-based, human
Method: as §2, §3

AsPC-1 cells = assay: Cell proliferation assay, chemodrug + ATR inhibitor (Incucyte confluence, 72 h); settings: for EC50: Homo sapiens;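 on all read-outs here: underlying read-out for every value is AsPC-1 confluence after 72 h incubation at 37 °C and 5% CO2, divided by that well's starting confluence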
[1] = tested on: nine PDAC patient-derived organoids (PDOs); assay: PDO viability assay (CellTiter-Glo, 72 h), panel; format: cell-based, human
Method: (§4) Primary patient-derived PDAC organoid (PDO) experiments were performed in the laboratories of Prof. Maximilian Reichert (University Hospital of the TU Munich, Germany, PDO set 1: B250, B535, B678) and Prof. Jens T. Siveke (University Hospital Essen, Germany; PDO set 2: UME008, UME012, UME051, UME053, UME060, UME061). PDOs were generated from surgical resection, EUS-guided fine needle biopsy (EUS-FNB), or ascites (Appendix Table S2). Surgical specimens were first minced with a sterile scalpel and subsequently washed with Anti-Anti solution and washing medium (PDO set 1), or vice versa (PDO set 2; Appendix Table S3). Biopsy samples were directly washed with an Anti-Anti solution and washing medium. Samples were digested using 1 ml of digestion medium at 37 °C while shaking, and the enzymatic reaction was stopped by adding 15 ml of washing medium (Appendix Table S3). […]
(§5) For viability assays in PDOs, confluent organoids were removed from medium, and Matrigel was dissolved by adding 200 μl (PDO set 1) or 2 ml (PDO set 2) of Cell Recovery Solution (Corning), and additionally 500 μl of DPBS (PDO set 1 only). […] After 72 h, cell viability was measured using the CellTiter-Glo Luminescent Cell Viability Assay (Promega) diluted 1:5 in the final volume of the well. […]

PDO B250 = assay: PDO viability assay (CellTiter-Glo, 72 h); format: cell-based; settings: Homo sapiens, read-out: EC50 mean
Method: as §1, with “If the pellet was blood-stained, ACK lysis buffer was added and incubated at room temperature.” left out
(§6) For viability assays in PDOs, confluent organoids were removed from medium, and Matrigel was dissolved by adding 200 μl (PDO set 1) or 2 ml (PDO set 2) of Cell Recovery Solution (Corning), and additionally 500 μl of DPBS (PDO set 1 only). […] After 72 h, cell viability was measured using the CellTiter-Glo Luminescent Cell Viability Assay (Promega) diluted 1:5 in the final volume of the well. After 20 min of incubation at room temperature under gentle shaking, the acquisition was performed in the microplate reader VantaSTAR (BMG Labtech) using 3000 gain for the amplification measurement of a detected signal (PDO set 1) or the Spark Multimode microplate reader (TECAN) at 800 ms integration time (PDO set 2).

PDO B535 = assay: PDO viability assay (CellTiter-Glo, 72 h); format: cell-based; settings: Homo sapiens, read-out: EC50 mean
Method: as §1, with “If the pellet was blood-stained, ACK lysis buffer was added and incubated at room temperature.” left out
as §6

PDO B678 = assay: PDO viability assay (CellTiter-Glo, 72 h); format: cell-based; settings: Homo sapiens, read-out: EC50 mean
Method: as §1, with “If the pellet was blood-stained, ACK lysis buffer was added and incubated at room temperature.” left out
as §6

PDO UME061 = assay: PDO viability assay (CellTiter-Glo, 72 h); format: cell-based, human
Method: as §4, §5

With `C[C@@H]1COCCN1c1cc(-c2ccnn2C)c2ccnc(-c3ccn[nH]3)c2n1` [Elimusertib] the Curve top (PDO UME053) was 1.13 and 0.99 and 1.07 and 1.15 and 1.00 and 0.79 and 1.11, the pEC50 (PDO UME053) was 7.03 and the EC50 (PDO UME053; read-out: EC50 mean) was 123 nM. The EC50 (PDO UME053; read-out: EC50 mean [nM]) was 123 nM, the “Log2FC_mean (GEM+ATRi vs. GEM), CHEK1 pS468” value (p-sites in Dan-G cells) was −4.2 log2 and the “Log2FC_mean (GEM+ATRi vs. GEM), CHEK1 pS468” value (p-sites in Capan-1 cells) was −4.5 log2. The Curve bottom (AsPC-1 cells) was 1.02 and 1.01, the Curve top (AsPC-1 cells) was 0.35 and 0.32 and 0.30 and 0.34 and 0.33 and 0.38 and 0.37 and 0.36 and the Response (AsPC-1 cells) was 1.16 and 1.13. For the same compound, the EC50 (AsPC-1 cells; ASPC1, 72 h, read-out: EC50 (cell growth)) was 113 nM, the EC50 (AsPC-1 cells; ASPC1, 72 h, read-out: EC50 mean [nM]) was 134 nM and the EC50 (AsPC-1 cells; ASPC1, read-out: EC50 mean [nM]) was 134 nM. The “PDOs significantly sensitized to GEM” value [1] was “five out of nine”, the EC50 ([1]; Homo sapiens, read-out: EC50 (monotherapy)) was 43 to 290 nM and the EC50 (PDO B250) was 49.3 nM. The EC50 (PDO B535) was 92.1 nM, the EC50 (PDO B678) was 290 nM and the Curve slope (PDO UME061) was 0.52 and 0.42 and 0.35 and 0.50 and 0.27 and 0.47. For the same compound, the EC50 (PDO UME061; Homo sapiens, read-out: EC50 mean) was 124 nM.

“And” between values parts separate entries of the source, which are not always exact repeats. Equal values may be shown once. Read-outs that look alike come from different tables or passages of the source.
